# Values of other authors in publication PMC11222241.
# Amino acid sequences for entries named in this document (tags omitted). Residues count along the entry.
# UniProt P05067, 672-711: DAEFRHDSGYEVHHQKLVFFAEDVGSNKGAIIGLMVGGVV
# UniProt P02649, 19-317: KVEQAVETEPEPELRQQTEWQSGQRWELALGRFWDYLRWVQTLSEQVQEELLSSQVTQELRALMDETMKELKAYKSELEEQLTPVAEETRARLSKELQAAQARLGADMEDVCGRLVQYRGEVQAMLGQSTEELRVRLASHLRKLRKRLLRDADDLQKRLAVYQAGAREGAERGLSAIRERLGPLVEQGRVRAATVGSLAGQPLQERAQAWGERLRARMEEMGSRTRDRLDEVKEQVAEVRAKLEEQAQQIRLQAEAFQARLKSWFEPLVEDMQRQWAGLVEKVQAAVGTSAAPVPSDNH
# Molecular target: Amyloid beta peptide (Homo sapiens) (UniProt P05067)
substance,measurement,value
APOE3 (from UniProt P02649),Kd,20 nM
